Assay results as given in patent publication US20260384449A1, “MACROCYCLIC AMINOPYRIDINE COMPOUNDS AS EGFR INHIBITORS” (published 2026).
Read-outs that look alike come from different tables or passages of the source.

Chains of the proteins cited; added tags and fusions are not shown. Lines headed by an entry give the natural chain unless they say otherwise; changes in a name come on top. A line that says so, or that is headed by a name, gives the form on record, which may keep a tag or linker. Residues count along the entry.
UniProt P00533, 25-1210 C797S/L858R limits assumed: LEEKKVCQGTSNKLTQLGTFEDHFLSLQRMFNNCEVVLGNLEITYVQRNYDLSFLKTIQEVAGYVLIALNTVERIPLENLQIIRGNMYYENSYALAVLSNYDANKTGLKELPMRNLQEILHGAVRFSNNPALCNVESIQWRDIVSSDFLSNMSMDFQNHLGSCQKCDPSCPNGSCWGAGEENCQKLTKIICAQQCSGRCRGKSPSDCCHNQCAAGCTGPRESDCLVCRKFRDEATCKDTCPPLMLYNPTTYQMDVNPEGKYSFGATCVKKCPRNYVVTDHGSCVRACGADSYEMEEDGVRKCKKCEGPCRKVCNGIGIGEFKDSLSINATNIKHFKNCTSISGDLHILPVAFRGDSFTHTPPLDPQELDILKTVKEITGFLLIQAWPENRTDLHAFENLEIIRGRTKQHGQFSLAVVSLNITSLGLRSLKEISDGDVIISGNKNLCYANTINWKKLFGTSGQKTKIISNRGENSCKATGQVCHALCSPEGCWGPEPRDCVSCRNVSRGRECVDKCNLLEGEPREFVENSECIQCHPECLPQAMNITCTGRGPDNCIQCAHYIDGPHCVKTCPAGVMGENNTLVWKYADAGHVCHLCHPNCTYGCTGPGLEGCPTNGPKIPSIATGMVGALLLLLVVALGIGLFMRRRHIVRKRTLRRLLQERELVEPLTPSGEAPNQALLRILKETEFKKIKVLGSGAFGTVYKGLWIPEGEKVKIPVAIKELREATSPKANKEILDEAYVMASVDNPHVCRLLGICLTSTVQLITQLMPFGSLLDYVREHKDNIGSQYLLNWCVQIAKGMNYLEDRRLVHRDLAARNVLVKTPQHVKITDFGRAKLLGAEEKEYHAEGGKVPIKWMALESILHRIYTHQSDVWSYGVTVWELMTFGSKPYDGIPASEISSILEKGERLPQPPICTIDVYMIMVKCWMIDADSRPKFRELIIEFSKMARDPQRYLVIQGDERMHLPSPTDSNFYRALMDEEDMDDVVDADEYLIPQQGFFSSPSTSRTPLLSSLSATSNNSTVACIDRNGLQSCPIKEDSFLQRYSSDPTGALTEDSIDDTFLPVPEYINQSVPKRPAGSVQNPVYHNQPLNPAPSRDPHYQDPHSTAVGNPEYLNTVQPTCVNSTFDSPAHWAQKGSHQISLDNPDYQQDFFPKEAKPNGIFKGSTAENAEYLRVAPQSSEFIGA
UniProt P00533, 25-1210 T790M/C797S/L858R limits assumed: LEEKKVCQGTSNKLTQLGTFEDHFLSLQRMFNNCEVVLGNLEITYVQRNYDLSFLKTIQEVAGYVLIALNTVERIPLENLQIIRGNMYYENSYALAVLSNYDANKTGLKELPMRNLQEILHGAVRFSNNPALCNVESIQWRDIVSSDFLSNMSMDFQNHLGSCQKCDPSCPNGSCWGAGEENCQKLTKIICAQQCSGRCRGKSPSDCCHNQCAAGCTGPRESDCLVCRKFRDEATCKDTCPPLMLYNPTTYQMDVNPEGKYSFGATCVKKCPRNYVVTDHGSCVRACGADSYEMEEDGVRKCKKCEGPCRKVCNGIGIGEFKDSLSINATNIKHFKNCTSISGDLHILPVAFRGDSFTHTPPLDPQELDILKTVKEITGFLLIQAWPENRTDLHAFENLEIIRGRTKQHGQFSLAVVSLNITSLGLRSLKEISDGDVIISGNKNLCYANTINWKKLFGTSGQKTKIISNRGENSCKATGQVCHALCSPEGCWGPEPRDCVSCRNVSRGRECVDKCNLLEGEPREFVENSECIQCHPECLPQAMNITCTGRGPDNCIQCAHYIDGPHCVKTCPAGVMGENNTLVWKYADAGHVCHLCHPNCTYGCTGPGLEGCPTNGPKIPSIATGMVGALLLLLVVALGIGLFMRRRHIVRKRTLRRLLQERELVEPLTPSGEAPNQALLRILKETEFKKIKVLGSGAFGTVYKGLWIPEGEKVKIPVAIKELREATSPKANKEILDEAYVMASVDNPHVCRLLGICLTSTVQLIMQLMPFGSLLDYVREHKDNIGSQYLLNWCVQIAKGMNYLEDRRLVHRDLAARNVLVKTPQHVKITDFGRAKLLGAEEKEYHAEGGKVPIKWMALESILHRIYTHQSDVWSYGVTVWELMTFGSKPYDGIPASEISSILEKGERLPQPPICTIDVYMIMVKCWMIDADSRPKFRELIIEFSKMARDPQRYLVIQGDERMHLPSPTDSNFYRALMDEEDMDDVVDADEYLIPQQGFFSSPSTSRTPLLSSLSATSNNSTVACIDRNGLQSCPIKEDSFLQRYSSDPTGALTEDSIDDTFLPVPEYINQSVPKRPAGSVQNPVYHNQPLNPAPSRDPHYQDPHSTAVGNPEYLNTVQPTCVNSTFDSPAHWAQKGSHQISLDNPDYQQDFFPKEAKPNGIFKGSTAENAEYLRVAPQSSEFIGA
UniProt P00533, with tags, fused parts or gaps DEL746-750/C797S limits assumed: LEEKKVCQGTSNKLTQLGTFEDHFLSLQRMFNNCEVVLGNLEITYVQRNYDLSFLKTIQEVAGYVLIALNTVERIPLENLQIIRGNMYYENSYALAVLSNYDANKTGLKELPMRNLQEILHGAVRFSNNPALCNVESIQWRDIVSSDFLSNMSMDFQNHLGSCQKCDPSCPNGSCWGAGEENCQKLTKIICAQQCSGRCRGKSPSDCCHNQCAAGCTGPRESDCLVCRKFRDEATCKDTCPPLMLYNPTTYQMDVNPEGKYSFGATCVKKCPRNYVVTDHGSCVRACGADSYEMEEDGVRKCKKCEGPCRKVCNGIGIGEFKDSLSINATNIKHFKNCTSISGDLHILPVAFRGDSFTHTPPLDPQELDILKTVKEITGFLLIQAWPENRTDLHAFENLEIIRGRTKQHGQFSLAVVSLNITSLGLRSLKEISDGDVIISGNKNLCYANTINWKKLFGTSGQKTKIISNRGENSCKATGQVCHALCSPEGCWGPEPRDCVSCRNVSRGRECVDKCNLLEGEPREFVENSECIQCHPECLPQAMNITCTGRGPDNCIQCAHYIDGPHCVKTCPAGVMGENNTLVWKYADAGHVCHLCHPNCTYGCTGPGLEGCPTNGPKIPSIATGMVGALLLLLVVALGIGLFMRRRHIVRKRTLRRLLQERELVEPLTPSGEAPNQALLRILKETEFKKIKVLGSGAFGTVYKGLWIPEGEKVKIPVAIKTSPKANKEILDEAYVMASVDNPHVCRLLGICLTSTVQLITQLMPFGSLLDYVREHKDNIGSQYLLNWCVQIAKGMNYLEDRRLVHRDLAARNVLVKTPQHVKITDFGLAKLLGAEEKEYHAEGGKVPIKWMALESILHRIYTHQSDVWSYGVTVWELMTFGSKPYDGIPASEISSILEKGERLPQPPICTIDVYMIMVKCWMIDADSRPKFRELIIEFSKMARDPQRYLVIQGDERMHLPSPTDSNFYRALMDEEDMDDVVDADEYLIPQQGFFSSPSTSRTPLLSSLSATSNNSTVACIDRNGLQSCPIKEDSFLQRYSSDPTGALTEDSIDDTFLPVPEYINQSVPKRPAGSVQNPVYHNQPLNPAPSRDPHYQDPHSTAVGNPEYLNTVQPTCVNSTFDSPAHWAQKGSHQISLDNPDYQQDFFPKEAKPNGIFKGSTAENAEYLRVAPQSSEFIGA
UniProt P00533, with tags, fused parts or gaps DEL746-750/T790M/C797S limits assumed: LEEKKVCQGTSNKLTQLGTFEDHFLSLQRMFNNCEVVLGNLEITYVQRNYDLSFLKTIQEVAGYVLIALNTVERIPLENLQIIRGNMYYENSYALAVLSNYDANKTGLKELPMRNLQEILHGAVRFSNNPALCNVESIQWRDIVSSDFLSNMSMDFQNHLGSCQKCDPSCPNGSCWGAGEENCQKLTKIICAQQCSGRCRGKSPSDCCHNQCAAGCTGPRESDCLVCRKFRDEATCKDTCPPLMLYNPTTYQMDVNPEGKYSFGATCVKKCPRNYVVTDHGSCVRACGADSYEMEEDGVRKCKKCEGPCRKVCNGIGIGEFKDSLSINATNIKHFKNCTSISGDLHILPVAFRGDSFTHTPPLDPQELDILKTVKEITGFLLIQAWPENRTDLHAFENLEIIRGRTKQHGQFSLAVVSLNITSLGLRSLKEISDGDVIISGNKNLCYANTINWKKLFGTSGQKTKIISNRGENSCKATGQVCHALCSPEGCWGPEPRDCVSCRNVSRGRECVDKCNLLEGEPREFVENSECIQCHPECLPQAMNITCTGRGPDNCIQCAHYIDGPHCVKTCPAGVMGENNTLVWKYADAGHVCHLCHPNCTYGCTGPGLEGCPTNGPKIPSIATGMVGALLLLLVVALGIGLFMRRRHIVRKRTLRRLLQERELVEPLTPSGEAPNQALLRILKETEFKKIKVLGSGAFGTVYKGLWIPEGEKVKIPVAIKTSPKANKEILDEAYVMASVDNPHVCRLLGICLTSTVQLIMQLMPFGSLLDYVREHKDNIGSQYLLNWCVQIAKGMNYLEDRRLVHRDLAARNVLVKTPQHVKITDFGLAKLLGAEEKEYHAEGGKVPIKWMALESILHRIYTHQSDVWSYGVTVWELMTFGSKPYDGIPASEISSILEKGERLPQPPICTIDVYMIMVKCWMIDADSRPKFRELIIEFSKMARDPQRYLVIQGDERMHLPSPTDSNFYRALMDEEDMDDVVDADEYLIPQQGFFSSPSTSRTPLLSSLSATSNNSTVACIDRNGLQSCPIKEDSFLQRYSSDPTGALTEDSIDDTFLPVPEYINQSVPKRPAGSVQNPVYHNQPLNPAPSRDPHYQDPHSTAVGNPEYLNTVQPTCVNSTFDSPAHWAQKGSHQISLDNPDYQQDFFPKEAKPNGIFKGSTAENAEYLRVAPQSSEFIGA
UniProt P00533, 25-1210 limits assumed: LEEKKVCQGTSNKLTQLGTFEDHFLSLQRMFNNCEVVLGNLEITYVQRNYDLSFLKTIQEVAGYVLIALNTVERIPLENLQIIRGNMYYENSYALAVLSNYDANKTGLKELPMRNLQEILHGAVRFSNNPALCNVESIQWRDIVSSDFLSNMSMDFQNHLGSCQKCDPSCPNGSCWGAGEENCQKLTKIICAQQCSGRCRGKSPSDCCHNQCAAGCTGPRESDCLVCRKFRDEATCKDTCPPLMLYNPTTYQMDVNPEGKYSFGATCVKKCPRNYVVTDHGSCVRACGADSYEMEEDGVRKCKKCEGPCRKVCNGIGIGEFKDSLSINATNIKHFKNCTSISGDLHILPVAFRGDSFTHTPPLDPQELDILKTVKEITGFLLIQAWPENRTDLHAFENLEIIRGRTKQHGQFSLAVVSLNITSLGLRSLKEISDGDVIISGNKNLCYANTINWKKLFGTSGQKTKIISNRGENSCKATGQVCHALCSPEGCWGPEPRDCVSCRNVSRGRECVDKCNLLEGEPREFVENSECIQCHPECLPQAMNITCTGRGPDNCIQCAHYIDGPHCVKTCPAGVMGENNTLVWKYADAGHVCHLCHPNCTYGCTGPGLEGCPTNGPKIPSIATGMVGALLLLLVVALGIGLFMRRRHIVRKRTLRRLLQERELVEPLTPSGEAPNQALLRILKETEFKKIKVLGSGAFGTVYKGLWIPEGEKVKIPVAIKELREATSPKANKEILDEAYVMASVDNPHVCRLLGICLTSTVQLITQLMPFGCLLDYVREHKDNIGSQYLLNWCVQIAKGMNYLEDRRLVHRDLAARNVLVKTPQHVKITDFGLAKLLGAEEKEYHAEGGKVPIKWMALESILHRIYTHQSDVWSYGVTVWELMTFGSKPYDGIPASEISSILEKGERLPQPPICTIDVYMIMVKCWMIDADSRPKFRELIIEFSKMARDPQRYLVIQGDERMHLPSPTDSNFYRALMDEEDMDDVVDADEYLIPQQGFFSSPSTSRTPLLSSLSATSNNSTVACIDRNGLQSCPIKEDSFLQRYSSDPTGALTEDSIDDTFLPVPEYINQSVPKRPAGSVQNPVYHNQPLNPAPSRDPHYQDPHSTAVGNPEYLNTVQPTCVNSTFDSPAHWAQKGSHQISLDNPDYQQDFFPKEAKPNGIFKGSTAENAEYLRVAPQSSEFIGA

Assays:
[1] = biological target: EGFR LRTMCS (L858R/T790M/C797S) (Homo sapiens, UniProt P00533, C797S/L858R/T790M); assay: Biochemical EGFR kinase inhibition (Lance Ultra TR-FRET), L858R/T790M/C797S; conditions: read-out: EGFR LRTMCS IC50
[2] = biological target: EGFR WT (Homo sapiens, UniProt P00533); assay: Biochemical EGFR kinase inhibition (Lance Ultra TR-FRET), wildtype; conditions: read-out: EGFR WT IC50; ATP at Km
[3] = biological target: EGFR D19TMCS (del19/T790M/C797S) (Homo sapiens, UniProt P00533, C797S/DEL746-750/T790M); assay: Biochemical EGFR kinase inhibition (Lance Ultra TR-FRET), del19/T790M/C797S; conditions: read-out: EGFR D19TMCS IC50
[4] = biological target: EGFR D19CS (del19/C797S) (Homo sapiens, UniProt P00533, C797S/DEL746-750); assay: Biochemical EGFR kinase inhibition (Lance Ultra TR-FRET), del19/C797S; conditions: read-out: EGFR D19CS IC50
[5] = biological target: EGFR LRCS (L858R/C797S) (Homo sapiens, UniProt P00533, C797S/L858R); assay: Biochemical EGFR kinase inhibition (Lance Ultra TR-FRET), L858R/C797S; conditions: read-out: EGFR LRCS IC50

| Compound | IC50 ([1]; 1 mM ATP) [nM] | IC50 ([1]; ATP at Km) [nM] | IC50 [2] [nM] | IC50 ([3]; 1 mM ATP) [nM] | IC50 ([3]; ATP at Km) [nM] | IC50 ([4]; 1 mM ATP) [nM] | IC50 ([4]; ATP at Km) [nM] | IC50 ([5]; 1 mM ATP) [nM] | IC50 ([5]; ATP at Km) [nM] |
| --- | --- | --- | --- | --- | --- | --- | --- | --- | --- |
| Cn1ncc2c1OCC1(CNc3cc(ncc3C#Cc3cnn(CC(F)(F)F)c3)Nc3ccnc-2n3)COC1 | 10 to 100 | < 10 | 100 to 1000 | < 10 | < 10 | 100 to 1000 | 100 to 1000 | > 1000 | 100 to 1000 |
| C[C@H]1CCOc2c(cnn2C)-c2nccc(n2)Nc2cc(c(C#Cc3cnn(C)c3C3CC3)cn2)N1 | < 10 | < 10 | < 10 | < 10 | < 10 | < 10 | < 10 | 100 to 1000 | < 10 |
| C[C@H]1CCOc2c(cnn2C)-c2nccc(n2)Nc2cc(c(C#Cc3cnn(CC(F)(F)F)c3)cn2)N1 | < 10 | < 10 | 10 to 100 | < 10 | < 10 | 10 to 100 | < 10 | 100 to 1000 | < 10 |
| C[C@@H]1CCOc2c(cnn2C)-c2nccc(n2)Nc2cc(c(C#Cc3cnn(CCF)c3)cn2)N1 | 100 to 1000 | < 10 | 100 to 1000 | 10 to 100 | < 10 | 100 to 1000 | 100 to 1000 | > 1000 | 100 to 1000 |
| Cc1cnc2nc1Nc1cc(c(C#Cc3cnn(C)c3)cn1)N[C@@H](C)CCOc1c-2cnn1C | > 1000 | 10 to 100 | > 1000 | > 1000 | 100 to 1000 | > 1000 | > 1000 | > 1000 | > 1000 |
| C[C@@H]1CCOc2c(cnn2C)-c2nccc(n2)Nc2cc(c(C#Cc3cnn(C(F)F)c3)cn2)N1 | 100 to 1000 | < 10 | 100 to 1000 | 10 to 100 | < 10 | > 1000 | 100 to 1000 | > 1000 | 100 to 1000 |
| C[C@H]1CCOc2c(cnn2C)-c2nccc(n2)Nc2cc(c(C#Cc3cnn(C)c3)cn2)N1 | < 10 | < 10 | 10 to 100 | < 10 | < 10 | 10 to 100 | < 10 | 100 to 1000 | < 10 |
| Cc1nn(C(F)(F)F)c(C)c1C#Cc1cnc2cc1N[C@@H](C)CCOc1c(c(C)nn1C)-c1nccc(n1)N2 | > 1000 | 10 to 100 | 100 to 1000 | 100 to 1000 | 10 to 100 | 100 to 1000 | 100 to 1000 | > 1000 | 10 to 100 |
| C[C@@H]1CCOc2c(cnn2C)-c2nccc(n2)Nc2cc(c(C#Cc3cnn(C4CC4(F)F)c3)cn2)N1 (stereo partly drawn) | 100 to 1000 | 10 to 100 | 100 to 1000 | 10 to 100 | < 10 | > 1000 | 100 to 1000 | > 1000 | > 1000 |
| C[C@H]1CCNc2cc(ncc2C#Cc2cnn(CC(F)F)c2)Nc2ccnc(n2)-c2cnn(C)c2O1 | < 10 | < 10 | 10 to 100 | < 10 | < 10 | 10 to 100 | < 10 | 10 to 100 | < 10 |
| C[C@H]1CCOc2c(cnn2CC(F)(F)F)-c2nccc(n2)Nc2cc(c(C#Cc3cnn(CC(F)(F)F)c3)cn2)N1 | 10 to 100 | < 10 | 100 to 1000 | 10 to 100 | < 10 | > 1000 | > 1000 | > 1000 | > 1000 |
| C[C@H]1CCOc2c(cnn2C)-c2nccc(n2)Nc2cc(c(CCc3cnn(C)c3)cn2)N1 | 10 to 100 | < 10 | 100 to 1000 | 10 to 100 | < 10 | > 1000 | 100 to 1000 | > 1000 | 100 to 1000 |
| C[C@@H]1CCOc2c(cnn2C)-c2nccc(n2)Nc2cc(c(C#Cc3cnn(CC(F)F)c3)cn2)N1 | 10 to 100 | < 10 | > 1000 | 10 to 100 | < 10 | > 1000 | 100 to 1000 | > 1000 | 10 to 100 |
| Cn1cc(C#Cc2cnc3cc2NCC(C)(C)COc2c(cnn2C)-c2nccc(n2)N3)cn1 | < 10 | < 10 | 10 to 100 | < 10 | < 10 | 10 to 100 | < 10 | 100 to 1000 | < 10 |
| C[C@H]1CCOc2c(cnn2C)-c2nccc(n2)Nc2cc(c(C#Cc3ccn(C)n3)cn2)N1 | 10 to 100 | < 10 | 100 to 1000 | < 10 | < 10 | 100 to 1000 | 10 to 100 | > 1000 | 100 to 1000 |
| Cc1nn(C)cc1C#Cc1cnc2cc1N[C@@H](C)CCOc1c(c(C)nn1C)-c1nccc(n1)N2 | < 10 | < 10 | 10 to 100 | < 10 | < 10 | 10 to 100 | < 10 | 100 to 1000 | < 10 |
